In patent publication US20180125988A1, “TARGETED XTEN CONJUGATE COMPOSITIONS AND METHODS OF MAKING SAME” (AMUNIX OPERATING INC., priority 2014, published 2018):
Where two headings read alike, the source gives them in different places.

What was measured:
HCC1954 = assay: CellTiter-Glo cytotoxicity of anti-HER2scFv XTEN drug conjugates with or without trastuzumab, HCC1954; format: cell-based; settings: HER2 positive but trastuzumab resistant HCC1954 cell line
From the text: The specific cytotoxic activity of anti-HER2scFv-3xMMAE-XTEN720 and anti-HER2scFv-3xDM1-XTEN720 were compared to their corresponding non-targeting XTEN432-3xMMAE and XTEN432-3xDM1 precursors for their ability to effect cytotoxicity in a CellTiter-Glo cell viability assay. Using a panel of HER2 expressing cell lines which included but not limited to SK-BR-3, BT474, NCI-N87, SK-OV-3 and HCC1954, the specificity of anti-HER2scFv-3xMMAE-XTEN720 and anti-HER2scFv-3xDM1-XTEN720 were further elucidated in the presence and absence of trastuzumab as competitor (FIG. 83 and FIG. 84). Briefly, HER2 positive cells were plated at 1×10^4 into each well of a 96-well microtiter plate and allowed to attach to the plate by an overnight incubation at 37° C., 5% CO2. The anti-HER2scFv-3xMMAE-XTEN720 and anti-HER2scFv-3xDM1-XTEN720 conjugates, with and without trastuzumab treatment, as well as XTEN432-3xMMAE and XTEN432-3xDM1 conjugates were all introduced into the plate in a dose range (in duplicate) and plate was incubated for 3 days at 37° C., 5% CO2. […] Luminescence signals were then read on a luminometer and an IC50s (half maximal inhibitory concentration) was calculated with GraphPad Prism software.

[1] = system: Human BT474 Breast Carcinoma; assay: Planned efficacy and safety study of anti-HER2scFv XTEN drug conjugates and Kadcyla in BT474 xenograft (Example 46); format: in vivo, female athymic nu/nu mice; settings: 30 nmol/kg iv, expected
From the text: The following efficacy study is designed to decipher the effect of (1) MMAE versus DM1; (2) impact of MMAE clustered at the N-terminal close to the anti-HER2scFv targeting moiety versus MMAE evenly spaced on the CXTEN polymer; (3) impact of BSRS1; and performance of anti-HER2-XTEN drug conjugates in comparison to (4) benchmark Kadcyla.
Designated as Day 0, 48 mice bearing targeted tumor size of 100-150 mm^3 are selected from the 68 mice and sorted into 6 groups of 8 animals per group; with each group having approximately equivalent mean tumor volume.
Any clinical signs of distress, deaths or adverse events are also noted.

[2] = system: Human NCI-N87 Gastric Carcinoma; assay: Planned efficacy and safety study of anti-HER2scFv XTEN drug conjugates and Kadcyla in NCI-N87 xenograft (Example 47); format: in vivo, female SCID mice; settings: 30 nmol/kg iv, expected
From the text: (§1) In the NCI-N87 xenograft model, 1x10^7 NCI-N87 cells are subcutaneously administered into the flank of 68 female SCID mice; while in the SK-OV-3 model, 1 mm^3 SK-OV-3 tumor fragment is subcutaneously implanted the flank of female athymic nu/nu mice. Designated as Day 0, 48 mice bearing targeted tumor size of 100-150 mm^3 are selected from the 68 mice and sorted into 6 groups of 8 animals per group; with each group having approximately equivalent mean tumor volume.
(§2) The endpoint for the SK-OV-3 study is defined as 2000 mm^3 or 30 days, whichever comes first. Percent tumor growth inhibition (% TGI) is calculated for each treatment group in both NCI-N87 and SK-OV-3 studies. […] Any clinical signs of distress, deaths or adverse events are also noted.

[3] = system: SK-OV-3 Ovarian Carcinoma; assay: Planned efficacy and safety study of anti-HER2scFv XTEN drug conjugates and Kadcyla in SK-OV-3 xenograft (Example 47); format: in vivo, female athymic nu/nu mice; settings: 30 nmol/kg iv, expected
From the text: as §1, §2

[4] = system: human BT474 breast cancer cells; settings: for % TGI: Day 30

| Substance | cytotoxic activity (HCC1954) | efficacy versus vehicle [1] | efficacy versus vehicle [2] | efficacy versus vehicle [3] | % TGI ([4]; 30 nmol/kg iv) | % TGI ([4]; 100 nmol/kg iv) | % TGI ([4]; 300 nmol/kg iv) | tolerability, body weight ([4]; 30, 100 and 300 nmol/kg iv) |
| --- | --- | --- | --- | --- | --- | --- | --- | --- |
| anti-HER2scFv-3xDM1-XTEN720 | strong cytotoxic activity | more efficacious than vehicle in inducing tumor stasis or regression | more efficacious than vehicle in inducing tumor stasis or regression | more efficacious than vehicle in inducing tumor stasis or regression | – | – | – | – |
| anti-HER2scFv-3xMMAE-XTEN720 | strong cytotoxic activity | more efficacious than vehicle in inducing tumor stasis or regression | more efficacious than vehicle in inducing tumor stasis or regression | more efficacious than vehicle in inducing tumor stasis or regression | 90% | 91% | 97% | well tolerated with no visible weight loss |
